The values that follow come from patent publication US20220002432A1 (VIRTUOSO BINCO, published 2022).

Protein sequences, listed by entry. Tags and fused reporters are not part of them. Chains listed by the source or under a name are the forms on record and can include a tag or linker.
UniProt Q5VAN0, other isoform, or with tags, fused parts or gaps: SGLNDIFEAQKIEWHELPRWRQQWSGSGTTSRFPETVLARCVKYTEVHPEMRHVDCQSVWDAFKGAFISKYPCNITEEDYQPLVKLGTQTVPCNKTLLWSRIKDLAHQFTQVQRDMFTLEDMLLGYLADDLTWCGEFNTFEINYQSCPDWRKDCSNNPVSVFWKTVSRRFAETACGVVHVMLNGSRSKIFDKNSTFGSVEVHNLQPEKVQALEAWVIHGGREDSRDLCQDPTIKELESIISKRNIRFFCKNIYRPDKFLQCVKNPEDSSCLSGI

One may read the Kd as the constant that tells how readily two partners part at equilibrium. What is called koff is a measure of how fast the partners let go of each other. The kon is a measure of how fast the partners come together.

The target in one assay is T1, cynomolgus CD38 ECD (cynomolgus, UniProt Q5VAN0, biotinylated on the AviTag during preparation).
T1 construct: also called Cyno-CD38; Avi-Cyno CD38 ECD
The experiment in a line: SPR (Biacore 8K), antibody captured, antigen injected.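 Also: antibodies held on a CM5 chip by anti-human IgG Fc, antigen in 3-fold dilution series, 1 min association, 10 min dissociation at 25 °C, 1:1 Langmuir kinetic fit.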 A general note: Surface plasmon resonance follows binding to a sensor surface in real time, without labels.

A further assay concerns the target recombinant human CD38 (human, UniProt P28907). The description is as above.

B1: Anti-CD38 G1F4 (antibody, human IgG1, kappa, V domains shown)
VH: [about 100 residues left out]RGTYGYSFPTGFDYWGQGTLVTVSS
VL: DIQMTQSPSSLSASVGDRVTITCRASQDVNTAVAWYQQKPGKAPKLLIYSASFLYSGVPSRFSGSRSGTDFTLTISSLQPEDFATYYCQQHYTTPPTFGQGTKVEIKR
notes: Human IgG1 with the common anti-HER2 light chain; From the phage/yeast libraries; also called G1F4_VH; G1F4_VL
In the assay with cynomolgus CD38 ECD, B1 returned a Kd of 26.5 nM, a dissociation rate constant (koff) of 0.0549 s⁻¹ and a kon of 2.07e+06 M⁻¹ s⁻¹. Moreover, in the assay with recombinant human CD38, the Kd was found to be 35.5 nM, the koff came to 0.0183 s⁻¹ and the kon came to 515000 M⁻¹ s⁻¹.
